Format in all cases: functional, cell-based
For one test, the target named is P2Y purinoceptor 6 (Homo sapiens, UniProt Q15077). As to the kind of experiment: Agonist activity at human recombinant P2Y6 receptor expressed in 1321N1 cells assessed as PLC-mediated [3H]IP production relative to UDP. The method in brief: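 Stable 1321N1 astrocytoma line expressing human P2Y6, grown to confluence and labelled 12 h in serum-free, inositol-free DMEM with 0.4 μCi myo-[3H]inositol. Agonists were added in Hepes pH 7.3 with LiCl for 20 min at 37 °C. The reaction was stopped with ice-cold 50 mM formic acid, neutralised with NH4OH, and [3H]inositol phosphates separated on Dowex AG 1-X8. EC50 came from four-parameter logistic fits; ratio to UDP EC50. Triplicates, ≥3 experiments.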

Sequences of proteins named here, by UniProt entry; tags and fusion partners are left off. A change or cut given only in a name is not applied to a line headed by its entry.
UniProt Q15077: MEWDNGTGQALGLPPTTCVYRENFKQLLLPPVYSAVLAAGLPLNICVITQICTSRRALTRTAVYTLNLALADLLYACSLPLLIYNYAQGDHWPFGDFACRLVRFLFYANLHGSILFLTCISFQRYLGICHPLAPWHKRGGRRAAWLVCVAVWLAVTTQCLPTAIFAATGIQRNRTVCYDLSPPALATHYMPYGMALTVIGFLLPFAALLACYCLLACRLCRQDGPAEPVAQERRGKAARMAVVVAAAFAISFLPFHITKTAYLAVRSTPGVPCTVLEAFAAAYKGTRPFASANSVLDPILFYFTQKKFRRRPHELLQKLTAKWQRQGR
UniProt P41231: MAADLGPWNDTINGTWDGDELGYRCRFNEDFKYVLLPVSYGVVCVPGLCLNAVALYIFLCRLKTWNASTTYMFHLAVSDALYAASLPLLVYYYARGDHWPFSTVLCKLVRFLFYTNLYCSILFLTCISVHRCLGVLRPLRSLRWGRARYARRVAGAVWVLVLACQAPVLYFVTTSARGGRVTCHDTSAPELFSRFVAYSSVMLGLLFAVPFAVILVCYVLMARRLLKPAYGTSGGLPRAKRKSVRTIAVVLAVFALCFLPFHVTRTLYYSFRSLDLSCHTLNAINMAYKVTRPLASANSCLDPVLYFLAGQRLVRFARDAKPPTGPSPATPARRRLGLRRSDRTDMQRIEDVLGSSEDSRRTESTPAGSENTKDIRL
UniProt P51582: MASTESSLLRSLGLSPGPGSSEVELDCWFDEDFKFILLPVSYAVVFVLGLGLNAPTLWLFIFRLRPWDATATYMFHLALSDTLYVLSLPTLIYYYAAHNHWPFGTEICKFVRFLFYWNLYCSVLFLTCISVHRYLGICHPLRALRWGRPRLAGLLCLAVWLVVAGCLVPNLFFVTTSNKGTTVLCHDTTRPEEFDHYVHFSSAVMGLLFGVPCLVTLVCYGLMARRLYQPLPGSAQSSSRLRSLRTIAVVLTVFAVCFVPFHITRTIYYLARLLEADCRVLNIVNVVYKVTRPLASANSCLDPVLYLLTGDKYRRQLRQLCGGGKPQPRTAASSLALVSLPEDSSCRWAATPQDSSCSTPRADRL

For another test, the target named is P2Y purinoceptor 2 (Homo sapiens, UniProt P41231). As to the kind of experiment: Agonist activity at human recombinant P2Y2 receptor expressed in 1321N1 cells assessed as PLC-mediated [3H]IP production relative to UTP.
For a further test, the target named is P2Y purinoceptor 4 (Homo sapiens, UniProt P51582). As to the kind of experiment: Agonist activity at human recombinant P2Y4 receptor expressed in 1321N1 cells assessed as PLC-mediated [3H]IP production relative to UTP.

As for `O=c1ccn([C@H]2C[C@H](O)[C@@H](COP(=O)(O)OP(=O)(O)O)O2)c(=O)[nH]1`, the results for the Ratio EC50 on P2Y purinoceptor 6, at P2Y purinoceptor 2 and on P2Y purinoceptor 4 were 130, 22 and 26, respectively.

The values are drawn from ChEMBL document CHEMBL1149485, “Structure-activity relationships of uridine 5'-diphosphate analogues at the human P2Y6 receptor” (J Med Chem, 2006).
